This is an account of results in patent US7446122B2, “Substituted indole derivatives” (Cephalon, Inc., priority 2003, dated 2008).

The chains behind the UniProt entries cited, without tags or fusion partners. Residues count along the entry.
UniProt P23219, 24-599: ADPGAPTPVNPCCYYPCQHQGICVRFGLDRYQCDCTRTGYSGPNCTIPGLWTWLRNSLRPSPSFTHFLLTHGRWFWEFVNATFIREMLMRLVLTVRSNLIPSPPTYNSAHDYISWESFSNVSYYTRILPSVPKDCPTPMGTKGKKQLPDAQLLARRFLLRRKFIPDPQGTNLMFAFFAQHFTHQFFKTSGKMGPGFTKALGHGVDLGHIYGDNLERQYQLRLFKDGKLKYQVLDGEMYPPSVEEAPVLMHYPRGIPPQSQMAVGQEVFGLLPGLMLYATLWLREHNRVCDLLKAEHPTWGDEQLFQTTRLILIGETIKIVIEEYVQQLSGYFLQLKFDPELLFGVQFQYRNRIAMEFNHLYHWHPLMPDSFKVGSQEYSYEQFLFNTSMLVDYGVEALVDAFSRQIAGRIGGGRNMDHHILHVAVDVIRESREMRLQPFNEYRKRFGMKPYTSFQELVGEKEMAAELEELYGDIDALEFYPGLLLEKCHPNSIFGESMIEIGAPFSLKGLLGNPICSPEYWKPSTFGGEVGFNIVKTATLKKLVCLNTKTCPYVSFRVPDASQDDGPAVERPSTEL

The test addresses T1, COX-1 (Homo sapiens, UniProt P23219).
T1 construct: endogenous in cells; host or cells: human platelets
In words: Cox-1 assay: PGE2 formation in human platelets. In kind it is cell-based. To be noted: compounds are screened at 10 μM. The protocol: Test compound and/or vehicle is incubated with human platelets (10^8/ml) containing the phospholipase inhibitor MLnFP (100 μM) for 15 minutes at 37° C. Arachidonic acid (100 μM) is then added for a further 15 minute incubation period. The reaction is stopped by addition of 1 N HCl and neutralized with 1N NaOH. PGE2 levels in the supernatant are determined using the Amersham EIA kit. […]

Molecules are shown by their SMILES.

Regarding `CCc1cccc2c3c([nH]c12)C(CC)(CC(=O)O)OCC3` (stereo not shown) [Etodolac, reference compound], the inhibition (commonly the change of the read-out against control, counted positive when it falls) at 10 µM was -25%.
